## Yeast mating assay 2: variants of the scFv Ab-95

The target is the same throughout: PDVDLGDISGINAS, from the HR2 region of SARS-CoV-2 spike.

Parent: Ab-95, a human scFv built as VH, three GGGGS repeats, VL. Only the CDRs of the light chain vary.
VH: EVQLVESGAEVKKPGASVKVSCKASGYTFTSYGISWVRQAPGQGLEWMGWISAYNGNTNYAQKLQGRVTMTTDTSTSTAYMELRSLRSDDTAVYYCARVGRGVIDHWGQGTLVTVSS
VL: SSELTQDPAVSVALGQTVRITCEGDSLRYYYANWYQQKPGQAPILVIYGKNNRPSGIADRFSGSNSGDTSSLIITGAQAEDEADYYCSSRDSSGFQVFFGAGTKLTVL

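Phage display of a naive human antibody library on the peptide gave the parent. AAYL52 was designed without a model: most single CDR substitutions and a random sample of double and triple ones. The scFvs were displayed on barcoded MATa yeast, the peptide on MATalpha yeast. Mating (16 h, 30 °C) was followed by selection of diploids and sequencing of their barcodes. Read counts were normalised to the haploid input and turned into Kd by a linear fit to BCL2-family pairs of known affinity, for each replicate. Each pool was mated in three replicate cultures.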

Variants are written as CDR1, CDR2 and CDR3 of the light chain (limits as in the source). Parent: EGDSLRYYYAN, GKNNRPS, SSRDSSGFQVF. Affinities are written as log10 Kd with Kd in nM; a lower number is a better binder. The mean shown is taken over the replicates in which the pair was detected. A pair that was not seen in any replicate is written "no signal"; this usually means weak binding, but a binder can also be missed. Order: sorted from the lowest average up, undetected variants last. Nonspecific signal, from three strains lacking the peptide, appeared in 28% of pairings of library AAYL52, centred on 3.91 (5% of these signals below 2.90); values are not corrected for it. Also given: how often the same scFv was detected with the empty control strains.

{"CDR-L1": "EGFSLDYYYAL", "CDR-L2": "GKNNRPS", "CDR-L3": "SSRDSSGFQVF", "mean, log10 nM": "2.24", "seen in": "3 of 3", "signal with controls": "3 of 9"}
{"CDR-L1": "EGDSLRYGYAN", "CDR-L2": "GKNNRPS", "CDR-L3": "SSRDSSGFEVA", "mean, log10 nM": "2.26", "seen in": "3 of 3", "signal with controls": "4 of 9"}
{"CDR-L1": "EGDSLRYYLAN", "CDR-L2": "GKNHRPS", "CDR-L3": "SSRDSSYFQVF", "mean, log10 nM": "2.70", "seen in": "2 of 3", "signal with controls": "3 of 9"}
{"CDR-L1": "EVDSLRYYYAN", "CDR-L2": "GKNNRPS", "CDR-L3": "SSRDSSGFFVS", "mean, log10 nM": "3.11", "seen in": "3 of 3", "signal with controls": "5 of 9"}
{"CDR-L1": "EGDSLRYYYAN", "CDR-L2": "GKNNRSS", "CDR-L3": "ASWDSSGFQVF", "mean, log10 nM": "3.28", "seen in": "3 of 3", "signal with controls": "0 of 9"}
{"CDR-L1": "EGDSLRYYYAN", "CDR-L2": "GKNNRPS", "CDR-L3": "SSRDWSGVQVF", "mean, log10 nM": "3.29", "seen in": "3 of 3", "signal with controls": "4 of 9"}
{"CDR-L1": "EGDSLRLYYTN", "CDR-L2": "GKNNRIS", "CDR-L3": "SSRDSSGFQVF", "mean, log10 nM": "3.36", "seen in": "1 of 3", "signal with controls": "1 of 9"}
{"CDR-L1": "EGDSLRYYYAN", "CDR-L2": "GKNNRPS", "CDR-L3": "SIRDSSGWQVT", "mean, log10 nM": "3.43", "seen in": "3 of 3", "signal with controls": "2 of 9"}
{"CDR-L1": "EGDSLDYYYAN", "CDR-L2": "GKNNIPS", "CDR-L3": "SSRDSSGFQVM", "mean, log10 nM": "3.48", "seen in": "1 of 3", "signal with controls": "1 of 9"}
{"CDR-L1": "EGDKLRYYVAF", "CDR-L2": "GKNNRPS", "CDR-L3": "SSRDSSGFQVF", "mean, log10 nM": "3.48", "seen in": "1 of 3", "signal with controls": "1 of 9"}
{"CDR-L1": "EGDSLRYYYAN", "CDR-L2": "GRNNRPS", "CDR-L3": "SMRDSSGFDVF", "mean, log10 nM": "3.59", "seen in": "3 of 3", "signal with controls": "3 of 9"}
{"CDR-L1": "EGDSLCYYYAN", "CDR-L2": "DKNNRPS", "CDR-L3": "SSRKSSGFQVF", "mean, log10 nM": "3.69", "seen in": "1 of 3", "signal with controls": "2 of 9"}
{"CDR-L1": "EGDSLRYYYAN", "CDR-L2": "WKNNRPG", "CDR-L3": "SSRDSSGFQVG", "mean, log10 nM": "4.06", "seen in": "1 of 3", "signal with controls": "2 of 9"}
{"CDR-L1": "EGDSLRYYYAN", "CDR-L2": "GKINRPS", "CDR-L3": "SSRDSSGFHGF", "mean, log10 nM": "4.28", "seen in": "2 of 3", "signal with controls": "2 of 9"}
{"CDR-L1": "EGDSLRWYYFN", "CDR-L2": "GKNNRPS", "CDR-L3": "SSRDSSGFQVS", "mean, log10 nM": "4.36", "seen in": "1 of 3", "signal with controls": "3 of 9"}
{"CDR-L1": "EGDSLRYYYAN", "CDR-L2": "GKNNRPS", "CDR-L3": "DSRDSSHFQIF", "mean, log10 nM": "4.39", "seen in": "3 of 3", "signal with controls": "5 of 9"}
{"CDR-L1": "EGDQLRYYYAE", "CDR-L2": "GKNNRQS", "CDR-L3": "SSRDSSGFQVF", "mean, log10 nM": "4.44", "seen in": "1 of 3", "signal with controls": "5 of 9"}
{"CDR-L1": "EGDSLRYWYAN", "CDR-L2": "GKNNRPS", "CDR-L3": "SKRDSSGFQSF", "mean, log10 nM": "no signal", "seen in": "0 of 3", "signal with controls": "0 of 9"}
{"CDR-L1": "ESDSLRIYYAN", "CDR-L2": "GKNNRPS", "CDR-L3": "SSRDSSGEQVF", "mean, log10 nM": "no signal", "seen in": "0 of 3", "signal with controls": "2 of 9"}
{"CDR-L1": "LGDSLRYYYAW", "CDR-L2": "GKNNRPS", "CDR-L3": "SSYDSSGFQVF", "mean, log10 nM": "no signal", "seen in": "0 of 3", "signal with controls": "2 of 9"}
{"CDR-L1": "EGDSLRYYYAN", "CDR-L2": "GKINIPS", "CDR-L3": "SSRDSSGFQVK", "mean, log10 nM": "no signal", "seen in": "0 of 3", "signal with controls": "1 of 9"}

The first 2 variants above that were never detected:

{"CDR-L1": "EGDSLRYWYAN", "CDR-L2": "GKNNRPS", "CDR-L3": "SKRDSSGFQSF", "mean, log10 nM": "no signal", "seen in": "0 of 3", "signal with controls": "0 of 9"}
{"CDR-L1": "ESDSLRIYYAN", "CDR-L2": "GKNNRPS", "CDR-L3": "SSRDSSGEQVF", "mean, log10 nM": "no signal", "seen in": "0 of 3", "signal with controls": "2 of 9"}

The measurements come from Engelhart et al. 2022 (doi:10.1038/s41597-022-01779-4) through the FLAb antibody collection.